{"source": "ChEMBL document CHEMBL3108756", "about": "“Evaluation of aminohydantoins as a novel class of antimalarial agents” (ACS Med Chem Lett, 2014)", "system": "Plasmepsin IV (Plasmodium falciparum)", "test": "Inhibition of Plasmodium falciparum plasmepsin-4 after 60 mins by fluorescence assay", "note": "Active and inactive are the calls of the source. The calls are words filed in the database; no cut-off is given here.", "data": [{"smiles": "COc1ccc(C2(c3ccc(OC)cc3)NC(=S)N(C3CCCCC3)C2=O)cc1", "values": [{"measurement": "inhibition", "result": "inactive"}]}]}
